Earlier results in patent publication US20070111204A1, “Methods for detecting nucleic acid variations” (priority 2003, published 2007).

Sequences of proteins named here, by UniProt entry; tags and fusion partners are left off. Residues count along the entry.
UniProt Q63118, 24-464: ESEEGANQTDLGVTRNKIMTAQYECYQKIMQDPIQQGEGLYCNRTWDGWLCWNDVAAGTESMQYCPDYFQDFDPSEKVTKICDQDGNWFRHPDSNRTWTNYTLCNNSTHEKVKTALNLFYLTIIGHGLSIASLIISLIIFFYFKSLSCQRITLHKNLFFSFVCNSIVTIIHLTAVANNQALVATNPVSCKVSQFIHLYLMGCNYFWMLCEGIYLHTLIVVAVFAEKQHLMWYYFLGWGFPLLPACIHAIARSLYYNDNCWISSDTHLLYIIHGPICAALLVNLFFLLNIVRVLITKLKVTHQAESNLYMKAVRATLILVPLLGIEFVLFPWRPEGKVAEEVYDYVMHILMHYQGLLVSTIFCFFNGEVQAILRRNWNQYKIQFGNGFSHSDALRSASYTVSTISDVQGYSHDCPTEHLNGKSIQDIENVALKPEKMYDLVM
UniProt Q9JJ74, 27-148: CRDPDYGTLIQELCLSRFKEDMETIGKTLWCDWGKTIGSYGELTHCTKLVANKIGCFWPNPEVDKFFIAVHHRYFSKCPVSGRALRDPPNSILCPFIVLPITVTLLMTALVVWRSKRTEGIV

Tests used:
CGRP [1] = biological target: T1, CGRP (Rattus norvegicus, UniProt Q63118+Q9JJ74); details: rats, electrical stimulation of the dura mater, prior administration (Williamson et al. 1997)
T1 construct: host or cells: living rat (dural / facial vasculature), endogenous receptor

CGRP [2] = biological target: T1, CGRP; details: trigeminal ganglion stimulation (Escott et al. 1995)

CGRP(8-37)
effect on increase of middle meningeal artery diameter (CGRP [1]): blocked | effect on increase of facial blood flow (CGRP [2]): inhibited
